{"source": "paper PMC3830930", "about": "(Clinical pharmacology and therapeutics, 2011)", "tested_on": "UDP-glucuronosyltransferases (UGTs) in pooled HLMs", "assay": "Glucuronidation of hydroxymidazolams in HLMs", "assay_type": "in vitro ADME, human"}
{"smiles": "O=C(O)Cc1ccccc1Nc1c(Cl)cccc1Cl", "note": "[diclofenac]", "values": [{"measurement": "effect on glucuronide formation from 1’-OH-MDZ or 4-OH-MDZ", "value": "decreased glucuronide formation significantly"}]}
